Literature values as cited in publication PMC10855781 (International Journal of Molecular Sciences, 2024).

Legend:
[1] = tested on: metastatic breast cancer patients
[2] = tested on: HER-2 positive HCC1954 breast and NCI-N87 gastric cancer xenografts; settings: mice; ref [116]
Text: (§1) The beneficial properties of the oxime linkage have recently been leveraged for tumor therapy in a variety of other conjugates, which display other peptides, antibodies, polysaccharides or 19-nortestosterone as carriers. […] Both are ADCs consisting of a proprietar ...

[3] = tested on: gastric adenocarcinoma or gastroesophageal junction adenocarcinoma
Text: as §1

[4] = 1.5 mg/kg every 3 weeks, ref [119]

**Q.** Which “median progression free survival (PFS)” value [1, 4] does the source give for ARX788 here?
**A.** 17 months

**Q.** What about the objective response rate [1, 4] of the same substance?
**A.** 65.5%

**Q.** And the “dose-limiting toxicities, drug-related deaths” value ([1]; 0.33–1.5 mg/kg every 3 or 4 weeks, ref [119])?
**A.** No dose-limiting toxicities or drug-related deaths

**Q.** And the “frequency of grade ≥ 3 adverse events” value ([1]; human, in vivo)?
**A.** 11.6%

**Q.** What about the “frequency of hematological toxicities (grade ≥ 3)” value ([1]; human, in vivo) of the same substance?
**A.** 1.4%

**Q.** And the “efficacy compared to trastuzumab emtansine (T-DM1)” value [2]?
**A.** superior efficacy

**Q.** What about the ORR ([3]; 1.3, 1.5 or 1.7 mg/kg every 3 weeks, 30 participants, ref [120]) of the same substance?
**A.** 37.9%

**Q.** And the “patients incurring grade 3 AEs” value ([3]; in vivo)?
**A.** four

**Q.** What about the “median PFS” value ([3]; ref [120]) of the same substance?
**A.** 10.7 months
